Results from patent US9675652B2, “Compositions and methods to relieve chronic diseases symptoms” (priority 2011, dated 2017).

System: Hep G2.2.15 cells
Assay: Cell viability by MTT, Hep G2.2.15 cells
Type: cell-based, human
Details: 5 uM
Procedure: The Hep G2.2.15 cells were seeded at 3×10^4 cells/well into 96-well culture plates and incubated at 37° C. in 5% CO2 overnight. After 3 to 4 days, the confluent cultures were cultured at 37° C. for another 3 to 5 days for HBV surface antigen (HBsAg) and HBV e-antigen (HBeAg) induction. Various concentrations of test articles including the positive control substance were then added during the 72 hrs induction period. The cultured media were harvested by centrifugation and the levels of HBsAg and HBeAg were analyzed with commercial enzyme-linked immunosorbant assay (ELISA) kits for HBsAg qualitative testing (General Biologicals Corp., SURASE B-96 (TMB)) and that for HBeAg qualitative testing (General Biologicals Corp., EASE BN-96 (TMB)), respectively. The activity expressed in terms of the efficiency of antigen secretion in percentage (hereinafter referred to as “relative activity”) was calculated with the equation Relative activity (%)=The ratio of the amount of antigen in the cultured medium with treatment to that without treatment×100.
Cell viability was assayed by the MTT method. Adefovir dipivoxil (ADFV, Patheon Inc., Canada), an antiviral agent, was used as positive control.

Structure (SMILES): CC(C)(C)C(=O)OCOP(=O)(COCCn1cnc2c(N)ncnc21)OCOC(=O)C(C)(C)C [Adefovir, Adefovir dipivoxil]
- MTT (+) drug/(−) drug (Ratio), cytotoxicity: 0.975
